# Measurements as given in PubChem BioAssay AID463190 (Sanford-Burnham Center for Chemical Genomics, 2010).
# Only a part is listed here, and it is no random draw. Active and inactive are the calls of the source.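 The calls were made as follows: active = inhibition of at least 40%; inactive = the rest.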
# Test: growth inhibition of tim10-1 ts yeast – luminescence, uHTS, primary screen (AID 463190);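 also: mutant grown at 25 °C; 0% = DMSO wells with yeast and 100% = wells holding no yeast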
# Conditions: S. cerevisiae tim10-1 ts strain growth, BacTiter-Glo, 24 h; at 20 µM; hits give high values
row,Structure (SMILES),inhibition
1,CCC(=O)N(c1ccccc1)C1(COC)CCN(CCn2nnn(CC)c2=O)CC1,inactive: -0.119%
2,CCC(=O)N(c1ccccc1)C1(COC)CCN(CCc2cccs2)CC1,inactive: 23%
